# Source: US8633183B2 (priority 2010, dated 2014)
# The chains behind the UniProt entries cited, without tags or fusion partners.
# UniProt P42336, whole entry, looked up: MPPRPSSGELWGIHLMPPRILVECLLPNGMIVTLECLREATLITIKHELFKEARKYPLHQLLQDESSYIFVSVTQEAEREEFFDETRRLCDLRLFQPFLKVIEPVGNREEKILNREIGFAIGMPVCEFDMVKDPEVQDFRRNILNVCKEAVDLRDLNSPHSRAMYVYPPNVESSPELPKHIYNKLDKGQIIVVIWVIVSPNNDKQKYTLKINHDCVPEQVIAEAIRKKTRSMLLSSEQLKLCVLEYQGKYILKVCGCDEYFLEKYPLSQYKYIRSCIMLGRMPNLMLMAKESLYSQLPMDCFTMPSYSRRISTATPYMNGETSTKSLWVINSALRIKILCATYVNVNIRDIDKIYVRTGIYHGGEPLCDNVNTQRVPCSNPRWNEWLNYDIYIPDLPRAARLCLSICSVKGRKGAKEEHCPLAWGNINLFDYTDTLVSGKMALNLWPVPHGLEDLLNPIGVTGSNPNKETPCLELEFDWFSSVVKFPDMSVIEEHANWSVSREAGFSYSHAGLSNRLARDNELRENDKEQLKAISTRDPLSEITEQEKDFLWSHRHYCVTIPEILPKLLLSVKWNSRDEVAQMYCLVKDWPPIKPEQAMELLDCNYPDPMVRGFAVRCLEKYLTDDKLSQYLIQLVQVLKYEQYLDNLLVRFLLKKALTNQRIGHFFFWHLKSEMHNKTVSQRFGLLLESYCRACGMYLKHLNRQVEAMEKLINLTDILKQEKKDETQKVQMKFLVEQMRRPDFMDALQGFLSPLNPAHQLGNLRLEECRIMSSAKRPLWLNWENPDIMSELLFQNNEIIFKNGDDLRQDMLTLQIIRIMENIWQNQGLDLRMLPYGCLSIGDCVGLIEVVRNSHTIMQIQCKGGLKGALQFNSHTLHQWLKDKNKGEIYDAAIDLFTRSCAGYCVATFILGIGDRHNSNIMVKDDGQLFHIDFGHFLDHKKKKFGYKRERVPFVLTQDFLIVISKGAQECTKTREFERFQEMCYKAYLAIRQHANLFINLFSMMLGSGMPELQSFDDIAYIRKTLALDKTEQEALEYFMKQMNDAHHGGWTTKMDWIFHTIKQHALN
# Target: PI3Kalpha (Homo sapiens (Human), UniProt P42336)
# Details: read-out: IC50 PI3K
row,SMILES,IC50
1,CCc1ncnc(-c2ccc(C(C)(C)C#N)cc2)c1C#Cc1ccc(N)nc1 [Example C-1],26 nM
2,CCc1ncnc(-c2ccc(C3CC3)nc2)c1C#Cc1ccc(N)nc1 [Example C-35],29 nM
